Several values for one entry are separate records, joined by “and”; a condition that tells them apart may be missing. Equal entries are not always repeated. This is a selection; strong and weak results do not stand in their true shares. Activity calls are given as the source filed them. Rule as the data show it: active = activity change below about -30%; inconclusive = mostly about -25% to -30%; inactive = weaker than that.

In this experiment the target is L-lactate dehydrogenase A chain (Homo sapiens) (UniProt P00338). The experiment can be described thus: qHTS assay for inhibitors of human lactate dehydrogenase.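 Also: values are at about 110 or 230 µM; plate controls were DMSO wells for no effect and wells without enzyme for full effect.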 Particulars: purified LDHA, NADH/diaphorase-resazurin fluorescence; active compounds read low. In a few lines:
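Resorufin fluorescence (ex540/em590), read at 0 and 20 min after diaphorase/resazurin addition, reports the NADH left after a 5 min room-temperature reaction of 2 nM human LDH5 with 0.06 mM NADH and 0.2 mM pyruvate.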
For orientation: qHTS replaces the single test concentration by a dilution series.
Consider `CC1C(=O)CCN(CCc2ccccc2)C1C` (stereo not given), for which the activity change was inactive: 4.24%.
As to `CC(C)(C)OC(=O)N1CCC(N(C(=O)c2ccccc2)c2ccc(Cl)cc2)CC1`, the activity change is inactive: 3.29%.
Regarding `O=C(NCC1(N2CCOCC2)CCCCC1)c1ccc([N+](=O)[O-])cc1`, the activity change is inactive: 0.471%.
To `N#Cc1ccc(C(=O)NCC2(N3CCCCC3)CCCCC2)cc1` belongs inactive: 0.795%; to `O=C(NCC1(N2CCOCC2)CCCCC1)c1ccccc1[N+](=O)[O-]`, inactive: 7.32%; to `CCCCn1nnnc1C(c1cccc(OC)c1OC)N1CCC(n2c(=O)[nH]c3ccccc32)CC1` (stereo not given), inactive: -5%.
To `Fc1ccc(CN2CCC(Nc3ccc(Br)cc3)CC2)cc1` belongs inactive: 5.42%; to `O=c1[nH]c2ccccc2n1C1CCN(C(c2cccs2)c2nnnn2C2CCCC2)CC1` (stereo not given), inactive: -4.85%; to `O=C(O)c1cccc(Nc2c([N+](=O)[O-])cc([N+](=O)[O-])cc2[N+](=O)[O-])c1`, inactive: 2.61%.
To `CCc1cc(C(=O)NCC2(N3CCCCC3)CCCCC2)sc1C` belongs inactive: 0.321%; to `O=C(OC1CN2CCC1CC2)C1c2ccccc2C=Cc2ccccc21` (stereo not given), inactive: -0.0881%.
Regarding `N/C(=N\O)c1c(N)no[n+]1[O-]`, the activity change was inactive: -6.59%.
To `Cn1nc(C(=O)NCC2(N3CCOCC3)CCCCC2)c2ccccc2c1=O` belongs inactive: 0.351%; to `CCOC(=O)N1CCC(Nc2ccc(C)cc2)CC1`, inactive: 0.3%.
As for `Cc1cc(NC2CCN(Cc3ccccc3)CC2)ccc1Br`, the activity change was inactive: -0.159%.
The same measure for `COc1cccc(C(c2nnnn2C(C)(C)C)N2CCC(n3c(=O)[nH]c4ccccc43)CC2)c1OC` (stereo not given): inactive: -6.38%; for `O=C(NCC1(N2CCCCC2)CCCCC1)c1n[nH]c(=O)c2ccccc12`: inactive: -15.8%.
The same measure for `O=c1[nH]c2ccccc2n1C1CCN(C(c2ccnc3ccccc23)c2nnnn2C2CCCC2)CC1` (stereo not given): inactive: -7.84%; for `COc1ccc(C(=O)NCC2(N3CCOCC3)CCCCC2)cc1OC`: inactive: 0.144%.
`O=Cc1ccc(N(CCCl)CCCl)cc1`: the activity change was inactive: -0.112%.
The same measure for `O=c1[nH]c2ccccc2n1C1CCN(C(c2cccs2)c2nnnn2C2CCCCC2)CC1` (stereo not given): inactive: -7.6%.
To `O=C(NCC1(N2CCOCC2)CCCCC1)c1n[nH]c(=O)c2ccccc12` belongs inactive: 0.513%.
On to `O=C(NCC1(N2CCOCC2)CCCCC1)c1cc(Br)ccc1Cl`, for which the activity change was inactive: -0.574%.
Turning to `COc1cc(C(=O)NCC2(N3CCOCC3)CCCCC2)cc(OC)c1C`, the activity change was inactive: 0.281%.
To `CCCCn1nnnc1C(c1ccccc1)N1CCC(n2c(=O)[nH]c3ccccc32)CC1` (stereo not given) belongs inactive: -1.54%.
Turning to `CN1CCC(Nc2ccc(Cl)cc2)CC1`, the activity change is inactive: -0.701%.
Consider `CCC(CO)(C(=O)OC1CN2CCC1CC2)c1ccccc1` (stereo not given), for which the activity change was inactive: -8.73%.
Take `COc1cc(OC)cc(C(=O)NCC2(N3CCOCC3)CCCCC2)c1`: the activity change was inactive: -5.57%.
Take `COc1cccc(C(c2nnnn2C2CCCC2)N2CCC(n3c(=O)[nH]c4ccccc43)CC2)c1OC` (stereo not given): the activity change is inactive: -8.25%.
The same measure for `COc1cc(C(=O)NCC2(N3CCOCC3)CCCCC2)cc(OC)c1OC`: inactive: 0.29%; for `COc1cccc(C(=O)N(c2cc(C)cc(C)c2)C2CCN(C(=O)OC(C)(C)C)CC2)c1`: inactive: 7.93%.
As to `O=c1[nH]c2ccccc2n1C1CCN(C(c2cc3ccccc3o2)c2nnnn2C2CCCC2)CC1` (stereo not given), the activity change is inactive: -2.64%.
For the compound `CCCOc1ccc(C(=O)NCC2(N(C)C)CCCCC2)cc1`, the activity change was inactive: -0.759% and inactive: 0.493%.
As to `ClCCN(CCCl)c1ccccc1`, the activity change is inactive: 2.22%.
Consider `O=C(O)C1(Nc2ccccc2)CCN(Cc2ccccc2)CC1`, for which the activity change is inactive: -4.05%.
Consider `NN(c1ccccc1)C1CCN(CCc2ccccc2)CC1`, for which the activity change was inactive: 8.01%.
For `ClCCN(CCCl)c1ccc(C=C2C=CC=C2)cc1`, the activity change was inactive: 7.64%.
Turning to `CC(C)(C)OC(=O)N1CCC(Nc2ccccc2)CC1`, the activity change was inactive: -3.23%.
The same measure for `CCCOc1ccccc1C(=O)NCC1(N(C)C)CCCCC1`: inactive: 8.29%; for `CN1CCC(Nc2ccc(F)c(Cl)c2)CC1`: inactive: -2.86%; for `CCOc1ncccc1C(=O)NCC1(N2CCOCC2)CCCCC1`: inactive: -5.34%.
The same measure for `Cc1ccc2oc(C(=O)NCC3(N4CCCCC4)CCCCC3)cc(=O)c2c1`: inactive: -0.828%; for `CN(C)c1ccc(C(=O)NCC2(N3CCCCC3)CCCCC2)cc1`: inactive: -7.89%.
Regarding `CC1CN(CCc2ccccc2)C(C)CC1=O` (stereo not given), the activity change was inactive: -10.6%.
The same measure for `Cn1c(=O)[nH]cc(N(CCCl)CCCl)c1=O`: inactive: -3.77%; for `O=C(NCC1(N2CCCCC2)CCCCC1)c1ccco1`: inactive: -1.27%; for `CC(C)(C)c1ccc(C(=O)NCC2(N3CCOCC3)CCCCC2)cc1`: inactive: -2.45%.
In the case of `Clc1ccccc1CN1CCC(Nc2ccc(Br)cc2)CC1`, the activity change is inactive: 13.9%.
As for `Cc1ccccc1C(=O)NCC1(N(C)C)CCCCC1`, the activity change is inactive: -5.71%.
As to `CCN1CCC(Nc2cccc(F)c2)CC1`, the activity change was inactive: -6.96%.
Regarding `COc1ccc(C(c2nnnn2C2CCCCC2)N2CCC(n3c(=O)[nH]c4ccccc43)CC2)cc1` (stereo not given), the activity change is inactive: 0.385%.
To `CC(C)(C)n1nnnc1C(c1ccnc2ccccc12)N1CCC(n2c(=O)[nH]c3ccccc32)CC1` (stereo not given) belongs inactive: -3.43%; to `Cn1cc(C(=O)NCC2(N3CCOCC3)CCCCC2)c2ccccc21`, inactive: -5.56%.
Consider `Cc1ccccc1NC1(C#N)CCN(Cc2ccccc2)CC1`, for which the activity change is inactive: -3.14%.
Regarding `Cc1ccc(NC2(C#N)CCN(Cc3ccccc3)CC2)cc1`, the activity change was inactive: -2.98%.
To `Fc1ccccc1NC1CCN(Cc2ccccc2)CC1` belongs inactive: -3.35%; to `Cc1ccc(Nc2c([N+](=O)[O-])cc([N+](=O)[O-])cc2[N+](=O)[O-])cc1`, inactive: 3.03%.
To `Cc1ccc(C(=O)NCC2(N3CCCCC3)CCCCC2)o1` belongs inactive: 0.553%.
To `COc1cc(OC)cc(C(=O)NCC2(N3CCCCC3)CCCCC2)c1` belongs inactive: -4.65%.
`O=c1[nH]c2ccccc2n1C1CCN(C(c2ccnc3ccccc23)c2nnnn2C2CCCCC2)CC1` (stereo not given): the activity change is inactive: -7.62%.
To `CN(C)C1(CNC(=O)c2cc3c(s2)CCC3)CCCCC1` belongs inactive: 4.19%.
For `CCC(c1nnnn1C1CCCCC1)N1CCC(n2c(=O)[nH]c3ccccc32)CC1` (stereo not given), the activity change was inactive: -3.91%.
To `CN(C)C1(CNC(=O)c2ccc(C(C)(C)C)cc2)CCCCC1` belongs inactive: 1.5%; to `COc1cccc(C(c2nnnn2C2CCCCC2)N2CCC(n3c(=O)[nH]c4ccccc43)CC2)c1OC` (stereo not given), inactive: -4.68%; to `CC(=O)N(c1ccccc1)C1CCNCC1`, inactive: -12.1%.

For the origin of these results see PubChem BioAssay AID1347041 (National Center for Advancing Translational Sciences (NCATS), 2019).
